Patent US20060106106A1, “Beta-hydroxyphenylalkylamines and their use for treating glaucoma” (priority 2002, published 2006)

Amino acid sequences for entries named in this document (tags omitted).
UniProt P14842, whole entry: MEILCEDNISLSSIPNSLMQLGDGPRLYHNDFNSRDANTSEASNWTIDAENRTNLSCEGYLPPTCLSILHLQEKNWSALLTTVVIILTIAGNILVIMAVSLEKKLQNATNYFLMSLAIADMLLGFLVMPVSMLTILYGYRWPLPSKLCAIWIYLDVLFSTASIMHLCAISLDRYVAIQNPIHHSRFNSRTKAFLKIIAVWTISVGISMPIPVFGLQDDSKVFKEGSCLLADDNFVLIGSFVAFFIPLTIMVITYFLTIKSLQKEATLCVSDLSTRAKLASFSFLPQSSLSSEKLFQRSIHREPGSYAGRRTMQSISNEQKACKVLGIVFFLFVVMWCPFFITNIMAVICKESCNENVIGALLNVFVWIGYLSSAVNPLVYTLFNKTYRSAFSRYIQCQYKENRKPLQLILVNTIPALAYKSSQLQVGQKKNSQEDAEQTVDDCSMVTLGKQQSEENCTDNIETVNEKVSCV

Biological target: T1, 5-HT2A (Rattus norvegicus, UniProt P14842)
T1 construct: [^3H]myo-inositol-labeled A7r5 rat vascular smooth muscle cells; endogenous in cells; host or cells: A7r5 rat vascular smooth muscle cells
Assay: 5-HT2 Functional Assay: [Ca2+]i Mobilization (FLIPR) in A7r5 cells
Format: cell-based
Conditions: for Emax: A7r5 cells, FLIPR, percentage of maximum 5-HT-induced response, read-out: 5-HT2A % Emax (Ca+2 Assay)
Protocol: 5-HT2 Functional Assay: [Ca^2+]i Mobilization
The receptor-mediated mobilization on intracellular calcium ([Ca^2+]i) was studied using the Fluorescence Imaging Plate Reader (FLIPR) instrument. Rat vascular smooth muscle cells, A7r5, were grown in a normal media of DMEM/10% FBS and 10 μg/mL gentamycin. Confluent cell monolayers were trypsinized, pelleted, and re-suspended in normal media. Cells were seeded in a 50 μL volume at a density of 20,000 cells/well in a black wall, 96-well tissue culture plate and grown for 2 days.
On the day of the experiment, one vial of FLIPR Calcium Assay Kit dye was re-suspended in 50 mL of a FLIPR buffer consisting of Hank's Balanced Salt Solution (HBSS), 20 mM HEPES, and 2.5 mM probenecid, pH 7.4. Cells were loaded with the calcium-sensitive dye by addition of an equal volume (50 μL) to each well of the 96-well plate and incubated with dye for 1 h at 23° C.
Compounds were diluted 1:50 in 20% DMSO/20% Ethanol. For “hit” screening, compounds were further diluted 1:10 in FLIPR buffer and tested at a final concentration of 10 μM.
The compound plate and cell plate were placed in the FLIPR instrument. At the beginning of an experimental run, a signal test was performed to check the basal fluorescence signal from the dye-loaded cells and the uniformity of the signal across the plate. The basal fluorescence was adjusted between 8000-12000 counts by modifying the exposure time, the camera F-stop, or the laser power. Instrument settings for a typical assay were the following: laser power 0.3-0.6 W, camera F-stop F/2, and exposure time 0.4 sec. An aliquot (25 μL) of the test compound was added to the existing 100 μL dye-loaded cells at a dispensing speed of 50 μL/sec. Fluorescence data were collected in real-time at 1.0 sec intervals for the first 60 secs and at 6.0 sec intervals for an additional 120 secs. Responses were measured as peak fluorescence intensity minus basal and where appropriate were expressed as a percentage of a maximum 5-HT-induced response.

C[C@H](N)C(O)c1ccccc1 (stereo partly shown) [Compound 3, reference compound]
Emax: 1.9%

COc1cc(C[C@@H](C)N)c(OC)cc1Br [Compound 4, DOB, reference compound]
EC50: 17.5 nM
Emax: 51%

CC(N)C(O)c1ccccc1 (stereo not shown) [Compound 2, reference compound]
Emax: 1.2%
